According to PubChem BioAssay (NCATS):
The source calls these results inconclusive, neither active nor inactive. Unless noted, calls come from the whole dose curve; as a rule, active = well fitted curve in the direction sought with a large enough effect; inconclusive = small, poorly fitted or top-dose-only effect, or another doubt; inactive = no such curve, though single readings can be large; an effect the other way counts as inactive or inconclusive.

Tests used:
[1] = biological target: Estrogen receptor (Homo sapiens) (UniProt P03372); assay: qHTS assay for small molecule antagonists of estrogen receptor alpha signaling (AID 588513; active = well fitted curve in the direction sought with a large enough effect in the signal ratio, with a control signal flat, not every such curve was filed as active; inconclusive = small, poorly fitted or top-dose-only effect, or effect the other way, or a change in a side signal; inactive = no such curve, though single readings can be large or run the other way; the % refers to the signal ratio; note: % is set by controls: 0 for no effect and ±100 for the full control effect); settings: ER-alpha-UAS-bla HEK293, beta-lactamase ratio, antagonist mode; activity, negative = inhibition: at 76.9 µM (top of the series)
[2] = biological target: Peroxisome proliferator-activated receptor delta (Homo sapiens) (UniProt Q03181); assay: qHTS assay for small molecule antagonists of peroxisome proliferator-activated receptor delta signaling (AID 588535; active = well fitted inhibition curve with a large enough effect in the signal ratio, with a control signal flat, not every such curve was filed as active; inconclusive = small, poorly fitted or top-dose-only effect, or effect the other way, or a change in a side signal; inactive = no such curve, though single readings can be large or run the other way; the % refers to the signal ratio); settings: HEK293T PPARd-UAS-bla, beta-lactamase FRET ratio, 18 h; activity change, negative = inhibition: at 76.7 µM (top of the series)
[3] = biological target: Peroxisome proliferator-activated receptor gamma (Homo sapiens) (UniProt P37231); assay: qHTS assay for small molecule antagonists of peroxisome proliferator-activated receptor gamma signaling (AID 588537; active = well fitted inhibition curve with a large enough effect in the signal ratio, with a control signal flat, not every such curve was filed as active; inconclusive = small, poorly fitted or top-dose-only effect, or effect the other way, or a change in a side signal; the % refers to the signal ratio;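 note: reporter cells co-stimulated with 50 nM rosiglitazone agonist during compound treatment; % of control where 0% means no effect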); settings: HEK293 PPARg-UAS-bla, beta-lactamase ratio, antagonist mode; activity, negative = inhibition: at 76.8 µM (top of the series)
In short: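 Cell-based beta-lactamase assay; GW9662 served as the antagonist control. Stimulation used rosiglitazone, final 50 nM, 16 h, 37 C.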

[4] = qHTS assay for small molecule agonists of the antioxidant response element (ARE) signaling pathway (AID 651741; active = well fitted activation curve with a large enough effect in the signal ratio; inconclusive = small, poorly fitted or top-dose-only effect, or effect the other way, or a change in a side signal; the % refers to the signal ratio; note: potency is the fitted concentration of half-maximal effect); settings: HepG2 ARE-bla reporter, beta-lactamase FRET ratio, 16 h; activation: at 96 µM (top of the series)
In short: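 Agonist activity is measured as ARE-driven beta-lactamase expression in a stable HepG2 reporter line, using 16 h compound treatment at 37 C and a FRET substrate fluorescence readout after 2 h.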

[5] = qHTS Validation Assay to Find Inhibitors of Chronic Active B-Cell Receptor Signaling (AID 485345; active = well fitted curve in the direction sought with a large enough effect in the main read-out, with a control signal flat, not every such curve was filed as active; inconclusive = small, poorly fitted or top-dose-only effect, or effect the other way, or a change in a side signal; inactive = no such curve, though single readings can be large or run the other way; note: potency is the fitted concentration of half-maximal effect); settings: ABC-DLBCL cells, chronic BCR signaling reporter, CBG luciferase
In short: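 Read-out: ratio of filter-corrected green (IkappaBalpha fusion) to red (native) luciferase signal in doxycycline-induced TMD8 cells after 4 h at 37C. Titration spanned 46 uM–3 nM; Data were normalised to basal cells and 10 uM MG-132 wells.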

[6] = NFAT Signaling Pathway (AID 444; active = well fitted curve in either direction with a large enough effect, not every such curve was filed as active; inconclusive = small, poorly fitted or top-dose-only effect, or another doubt;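 note: carbachol stimulus at about its EC50 of 1 µM final; % is set by controls: 0 for no effect and ±100 for the full control effect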); settings: Jurkat NFAT-bla M1, carbachol, beta-lactamase ratio, 5 h; at 38 µM (top of the series) unless noted
[7] = qHTS Assay for Identification of Small Molecule Antagonists for NFkB Signaling Pathway (AID 895; active = well fitted inhibition curve with a large enough effect in the signal ratio, with a control signal flat, not every such curve was filed as active; inconclusive = small, poorly fitted or top-dose-only effect, or effect the other way, or a change in a side signal; the % refers to the signal ratio; note: % is set by controls: 0 for no effect and ±100 for the full control effect); settings: NFkB beta-lactamase reporter cells, FRET ratio 460/530, stimulated with 10 pM TNF alpha; activity change, negative = inhibition: at 38.3 µM (top of the series)
[8] = qHTS to identify inhibitors of the type 1 interferon - major histocompatibility complex class I in skeletal muscle: primary screen against the NCATS Mechanism Interrogation Plate v5.0 (MIPE) Libary (AID 1347411); settings: iHSKM cells + IFN-b, HiBiT-tagged MHC-I luminescence, 24 h; at 45.8 µM (top of the series);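 note: plate controls were vehicle for no effect and reference inhibitor for full effect; nearly all actives have a fitted effect of over 65% in size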
[9] = Cytotoxicity counterscreen for inhibitors of SARS-CoV-2 cell entry (AID 1645845; calls by dose curve; note: potency is the fitted concentration of half-maximal effect; nearly all actives have a fitted effect of over 50% in size); settings: cell viability (SARS-CoV-2 entry assay cells)
[10] = biological target: Phospholipid hydroperoxide glutathione peroxidase GPX4 (Homo sapiens) (UniProt P36969); assay: Primary qHTS Assay for Inhibitors of Recombinant Selenoprotein Glutathione Peroxidase 4 (GPX4) (AID 1845192); settings: recombinant GPX4, GR-coupled NADPH fluorescence, 15 min; note: potency is the fitted concentration of half-maximal effect; nearly all actives have a fitted effect of over 65% in size
In short: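 NADPH consumption followed by fluorescence at 340/450 nm, t=0 and after 15 min at room temperature. Reaction started with cumene hydroperoxide (0.5 mM final) after 30 min compound–GPX4 preincubation; final 200 nM GPX4, 100 nM GR, 1 mM GSH, 0.5 mM NADPH.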

[11] = biological target: Androgen receptor (Homo sapiens) (UniProt P10275); assay: qHTS assay for small molecule agonists of androgen receptor signaling (AID 588515; active = well fitted curve in the direction sought with a large enough effect in the signal ratio, with a control signal flat; inconclusive = small, poorly fitted or top-dose-only effect, or effect the other way, or a change in a side signal; inactive = no such curve, though single readings can be large or run the other way; the % refers to the signal ratio; note: potency is the fitted concentration of half-maximal effect); settings: AR-UAS-bla HEK293, beta-lactamase ratio, agonist 16 h; activation: hits give high values
[12] = biological target: Thyroid hormone receptor beta (Homo sapiens) (UniProt P10828); assay: qHTS assay for small molecule antagonists of thyroid hormone receptor beta signaling (AID 588547; active = well fitted inhibition curve with a large enough effect in the signal ratio, with a control signal flat, not every such curve was filed as active; inconclusive = small, poorly fitted or top-dose-only effect, or effect the other way, or a change in a side signal; the % refers to the signal ratio); settings: TR-UAS-bla HEK293, beta-lactamase ratio, antagonist mode, 18 h; inhibition: hits give low values
In short: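 Inhibition of T3-driven (0.4nM final) beta-lactamase reporter activity was measured over 0.59 nM to 92 uM compound after 18 h at 37 C. The cells were GripTite HEK293 TR-UAS-bla in charcoal/dextran-stripped serum, with CCF4 ratio read-out and IC50 from Hill fits.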

[13] = biological target: Estrogen receptor (Homo sapiens) (UniProt P03372); assay: qHTS assay for small molecule agonists of estrogen receptor alpha signaling (AID 588514; calls by dose curve;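 note: 0% = vehicle only and 100% = reference agonist; nearly all actives have a fitted effect of over 70% in size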); settings: ER-alpha-UAS-bla HEK293, beta-lactamase ratio, 18 h, percent of full estradiol response, vehicle zero; at 76.8 µM (top of the series)
[14] = biological target: Retinoic acid receptor RXR-alpha (Homo sapiens) (UniProt P19793); assay: qHTS assay for small molecule agonists of retinoid X receptor alpha signaling (AID 588544; calls by dose curve; note: potency is the fitted concentration of half-maximal effect); settings: HEK293T RXRa-UAS-bla, beta-lactamase reporter, 18 h; activation: at 76.7 µM (top of the series)
[15] = P-glycoprotein substrates identified in KB-8-5-11 adenocarcinoma cell line, qHTS therapeutic library screen (AID 1346987); settings: KB-8-5-11 (P-gp overexpressing) viability, CellTiter-Glo, 72 h; note: potency is the fitted concentration of half-maximal effect; nearly all actives have a fitted effect of over 65% in size
[16] = biological target: Cytochrome P450 2C9 (Homo sapiens) (UniProt P11712); assay: Cytochrome P450 family 2 subfamily C member 9 (CYP2C9) small molecule antagonists: luciferase qHTS assay (AID 1645842; active = well fitted curve in the direction sought with a large enough effect in the repeat runs; inconclusive = weak or mixed curves; inactive = no such curve, though single readings can be large; an effect the other way counts as inactive or inconclusive; note: potency is the fitted concentration of half-maximal effect; nearly all actives have a fitted effect of over 55% in size); settings: P450-Glo CYP2C9 enzyme assay, luciferin luminescence
In short: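 P450-Glo CYP2C9 system: proluciferin substrate with enzyme in mix containing 0.4% BSA, 10 min at room temperature, then NADPH regeneration solution added and incubated 1 h at 37C. Detection reagent stopped reaction; luminescence read after 20 min as RLU.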

[17] = Primary qHTS to identify inhibitors of SARS-CoV-2 cell entry (AID 1645846; calls by dose curve; note: potency is the fitted concentration of half-maximal effect; nearly all actives have a fitted effect of over 45% in size); settings: SARS-CoV-2 pseudovirus cell entry assay, luminescence
[18] = Primary qHTS for inhibitors of nuclear receptor binding SET domain protein 2 (NSD2) in an isogenic RCH-ACV NSD2 p.E1099K mutant (9B) (AID 1645876); settings: RCH-ACV NSD2 E1099K (9B) viability, CellTiter-Glo, 72 h; note: potency is the fitted concentration of half-maximal effect; nearly all actives have a fitted effect of over 70% in size
[19] = Primary qHTS for inhibitors of nuclear receptor binding SET domain protein 2 (NSD2) in an RCH-ACV wild type WT cells (2C) (AID 1645877); settings: RCH-ACV (leukaemia line) NSD2 WT (2C) viability, CellTiter-Glo, 72 h; note: potency is the fitted concentration of half-maximal effect; nearly all actives have a fitted effect of over 70% in size
[20] = test system: Es-2; assay: Primary qHTS to identify gynecologic anti-cancer compounds using libraries of approved drugs and bioactive compounds (AID 1345084); settings: Gynecologic cancer cell panel viability, ATPlite luminescence, 48 h; note: potency is the fitted concentration of half-maximal effect; nearly all actives have a fitted effect of over 55% in size
In short: (§1)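 Measured: luminescence after ATPlite addition (15 min, RT). Exposure: 48 h, 37 C, 5% CO2.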

[21] = test system: Hek293T; assay: as above; settings: Gynecologic cancer cell panel viability, ATPlite luminescence, 48 h, control line for the selectivity index
In short: as §1

[22] = test system: JEG-3; assay: as above; settings: Gynecologic cancer cell panel viability, ATPlite luminescence, 48 h
In short: as §1

[23] = test system: PA-1; assay: as above; settings: Gynecologic cancer cell panel viability, ATPlite luminescence, 48 h
In short: as §1

[24] = qHTS of pediatric cancer cell lines to identify multiple opportunities for drug repurposing: Primary screen for SK-N-SH cells (AID 1347098); settings: SK-N-SH viability, CellTiter-Glo luminescence, 48 h; note: potency is the fitted concentration of half-maximal effect; nearly all actives have a fitted effect of over 65% in size
[25] = Primary qHTS for small molecule stabilizers of the endoplasmic reticulum resident proteome: Secreted ER Calcium Modulated Protein (SERCaMP) assay (AID 1508630); settings: SH-SY5Y GLuc-SERCaMP (Gaussia luciferase released on ER calcium loss) secretion, thapsigargin, luminescence; note: potency is the fitted concentration of half-maximal effect
In short: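 The SH-SY5Y reporter protocol was run at 3 concentrations up to 38.3 uM (primary) or 11 concentrations (follow-up): 16 h compound, 100 nM thapsigargin for 4 h, then extracellular luciferase luminescence.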

[26] = test system: KB-3-1; assay: Cytotoxic Profiling of Annotated Libraries Using Quantitative High-Throughput Screening (AID 1296008); settings: Five cell lines viability, CellTiter-Glo ATP luminescence, 48-72 h; note: potency is the fitted concentration of half-maximal effect; nearly all actives have a fitted effect of over 60% in size
[27] = test system: SKOV3; assay: Primary qHTS to identify gynecologic anti-cancer compounds using libraries of approved drugs and bioactive compounds (AID 1345084); settings: Gynecologic cancer cell panel viability, ATPlite luminescence, 48 h; note: potency is the fitted concentration of half-maximal effect; nearly all actives have a fitted effect of over 55% in size
In short: as §1

[28] = qHTS for differential inhibitors of proliferation of Plasmodium falciparum line 7G8 (AID 1815); settings: Plasmodium falciparum 7G8 proliferation inhibition;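 note: potency is the fitted concentration of half-maximal effect; parasite growth measured after three days of incubation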
[29] = qHTS for differential inhibitors of proliferation of Plasmodium falciparum line D10 (AID 1877);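 note: potency is the fitted concentration of half-maximal effect; parasites grown with compound for 72 h before DNA staining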
[30] = qHTS for differential inhibitors of proliferation of Plasmodium falciparum line HB3 (AID 1886); settings: Plasmodium falciparum HB3 proliferation inhibition;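 note: potency is the fitted concentration of half-maximal effect; parasites grown with compound for 72 h before SYBR Green readout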
[31] = qHTS Assay for Modulators of Human Peripheral Myelin Protein 22 (PMP22) Expression/Activity (AID 1967; active = well fitted curve in the direction sought with a large enough effect in the signal ratio; inconclusive = small, poorly fitted or top-dose-only effect, or effect the other way, or a change in a side signal; inactive = no such curve, though single readings can be large or run the other way; the % refers to the signal ratio; note: potency is the fitted concentration of half-maximal effect); settings: Cell-based PMP22 reporter, dual-color luciferase ratio, mouse Pmp22 promoter in mouse Schwann cells; activity change (ratio): at 115 µM (top of the series), 0% = compound-free control cells
In short: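 Readout is the corrected green/red luminescence ratio after 24 h compound exposure, normalised to untreated cells (0%). Engineered MSC80 mouse Schwann cells express green luciferase from the mouse Pmp22 promoter and red luciferase from EF-alpha as internal control.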

[32] = biological target: Thioredoxin reductase 1, cytoplasmic (Rattus norvegicus) (UniProt O89049); assay: qHTS Assay for Substrates of Mammalian Selenoprotein Thioredoxin Reductase 1 (TrxR1) (AID 488772); settings: purified TrxR1, NADPH consumption substrate assay;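 note: potency is the fitted concentration of half-maximal effect; a drop in NADPH fluorescence below the no-compound background marks a TrxR1 substrate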
In short: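 In this dual-purpose format, potential substrates are identified from the first fluorescence read after selenite addition, not from the 8-minute delta. Rat enzyme is preincubated with NADPH and then with compound at ~22 deg C.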

[33] = qHTS for Inhibitors of ATXN expression: Validation (AID 588378); settings: cell-based ATXN2 expression reporter assay, luminescence; note: potency is the fitted concentration of half-maximal effect; nearly all actives have a fitted effect of over 75% in size
In short: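 Luciferase luminescence (Bright-Glo) from an ATXN2-FFLuc HEK293 line after 24 h compound exposure at 37 °C, preceded by a CellTiter-Fluor fluorescence viability read. Serial dilutions of a reference ATXN2 inhibitor and a luciferase inhibitor served as controls.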

[34] = biological target: Glutaminase kidney isoform, mitochondrial (Homo sapiens) (UniProt O94925); assay: qHTS for Inhibitors of Glutaminase (GLS): LOPAC Validation (AID 624146); settings: glutaminase enzyme activity inhibition; note: potency is the fitted concentration of half-maximal effect; nearly all actives have a fitted effect of over 60% in size
In short: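 Compounds were pin-transferred onto hKGA, after which L-glutamine (1 mM solution) and a detection mix of glutamate oxidase, HRP and Amplex Red were added. Initial and 30 min RT fluorescence reads were collected.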

[35] = biological target: Arylsulfatase A (Homo sapiens) (UniProt P15289); assay: qHTS screen for enhancers of Arylsulfatase A (ASA1): LOPAC Validation Assay (AID 720538); settings: ASA enzyme activity, LOPAC qHTS enhancer assay; note: potency is the fitted concentration of half-maximal effect
In short: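 Enhancer assay in patient-derived MLD fibroblasts carrying ASA-I179S: 48 h compound exposure at 37 C, then 14 h room-temperature pNCS turnover (0.5 mM final) in lysis buffer. Read by fluorescence at 525/598 nm after NaOH stop.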

[36] = Confirmatory qHTS for small molecule stabilizers of the endoplasmic reticulum resident proteome: Secreted ER Calcium Modulated Protein (SERCaMP) assay (AID 1508628); settings: SERCaMP secreted luciferase ER calcium/proteostasis reporter; note: potency is the fitted concentration of half-maximal effect; nearly all actives have a fitted effect of over 40% in size
In short: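 GLuc-SERCaMP-expressing SH-SY5Y cells, pretreated 16 h with compound, are challenged with thapsigargin to empty ER calcium stores; after 4 h, coelenterazine is added directly to the medium and luminescence is imaged.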

[37] = Cell Viability qHTS for small molecule stabilizers of the endoplasmic reticulum resident proteome (AID 1508629); settings: cell viability counter-screen, 100 nM thapsigargin for final 4 h;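 note: potency is the fitted concentration of half-maximal effect; compound exposure about 46 h in total before the viability read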
[38] = qHTS Assay for Identification of Small Molecule Agonists for Hypoxia Response Element Signaling Pathway (AID 914; active = well fitted activation curve with a large enough effect in the signal ratio, with a control signal flat, not every such curve was filed as active; inconclusive = small, poorly fitted or top-dose-only effect, or effect the other way, or a change in a side signal; the % refers to the signal ratio; note: % of control where 0% means no effect); settings: ME-180 (cervical carcinoma) HRE-bla reporter, beta-lactamase ratio, CoCl2, 17 h; hits give high values

CC(C)OP(=O)(OC(C)C)SCCNS(=O)(=O)c1ccccc1
inconclusive: activity, negative = inhibition [1] -15% | activity change, negative = inhibition [2] 26.9% | activity, negative = inhibition [3] -1% | Potency [4] 0.0017 µM

COc1ccc(C=C(C#N)C#N)cc1
inconclusive: Potency [5] 18.4 µM

ClP(Cl)c1ccccc1
inconclusive: activity, negative = inhibition [1] 17.5%

CN(C(=O)Cc1ccc(Cl)c(Cl)c1)[C@@H]1CC[C@@]2(CCCO2)C[C@H]1N1CCCC1
inconclusive: activity change, negative = inhibition [6] -33.1% | activity change, negative = inhibition [7] -19.1%

N[C@@H](Cc1ccc([N+]([O-])(CCCl)CCCl)cc1)C(=O)O
inconclusive: activity change, negative = inhibition [8] -31.6% | Potency [9] 39.8 µM | Potency [10] 16.1 µM

CCCCO[P+](=O)OCCCC
inconclusive: Potency [11] 0.002 µM | activity, negative = inhibition [3] 5.86% | inhibition [12] -0.904%

O=[N+]([O-])c1ccc([N+](=O)[O-])cc1
inconclusive: activation [13] -0.716% | Potency [14] 25.1 µM

CN(C)C1(c2ccccc2)CCC2(CC1)OCCc1c2[nH]c2ccc(F)cc12 (stereo not drawn)
inconclusive: Potency [15] 1.03 µM | Potency [16] 8.49 µM | Potency [17] 0.891 µM | Potency [18] 0.325 µM | Potency [19] 1.45 µM | Potency [20] 2 µM | Potency [21] 3.55 µM | Potency [22] 3.16 µM | Potency [23] 0.891 µM

CN(C(=O)Cc1ccc(Cl)c(Cl)c1)[C@H]1CC[C@@]2(CCCO2)C[C@@H]1N1CCCC1
inconclusive: Potency [15] 2.06 µM | Potency [24] 0.0386 µM | Potency [25] 25.1 µM | Potency [26] 18.4 µM | Potency [21] 0.141 µM | Potency [27] 1.78 µM

CN(C(=O)Cc1ccc(Cl)c(Cl)c1)[C@@H]1CC[C@]2(CCCO2)C[C@H]1N1CCCC1
inconclusive: Potency [28] 6.31 µM | Potency [29] 12.6 µM | Potency [30] 12.6 µM | Potency [31] 84.9 µM | Potency [32] 4.74 µM | Potency [33] 22.4 µM | Potency [34] 15.8 µM | Potency [35] 3.38 µM | Potency [36] 31.6 µM | Potency [37] 0.141 µM | Potency [25] 8.91 µM

O=[As]c1ccc(S(=O)(=O)NCCO)cc1 (stereo not drawn)
inconclusive: activation [38] -9.82%
